Literature values in article PMC10803328 (Scientific Reports, 2024).

Protein sequences, listed by entry. Tags and fused reporters are not part of them. Lines headed by an entry give the natural chain unless they say otherwise; changes in a name come on top.
UniProt P23415: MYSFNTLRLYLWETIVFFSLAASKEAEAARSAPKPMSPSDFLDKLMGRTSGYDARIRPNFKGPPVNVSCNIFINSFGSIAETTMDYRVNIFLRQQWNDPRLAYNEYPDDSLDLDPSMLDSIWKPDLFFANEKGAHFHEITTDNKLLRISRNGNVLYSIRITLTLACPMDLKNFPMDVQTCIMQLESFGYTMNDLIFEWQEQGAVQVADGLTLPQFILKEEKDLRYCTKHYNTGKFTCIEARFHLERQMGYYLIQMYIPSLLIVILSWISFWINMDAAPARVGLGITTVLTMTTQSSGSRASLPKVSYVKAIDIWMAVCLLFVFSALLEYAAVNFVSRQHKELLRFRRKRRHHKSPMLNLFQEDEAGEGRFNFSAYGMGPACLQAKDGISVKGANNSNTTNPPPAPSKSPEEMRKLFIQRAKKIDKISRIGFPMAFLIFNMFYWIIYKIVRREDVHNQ
UniProt P36544: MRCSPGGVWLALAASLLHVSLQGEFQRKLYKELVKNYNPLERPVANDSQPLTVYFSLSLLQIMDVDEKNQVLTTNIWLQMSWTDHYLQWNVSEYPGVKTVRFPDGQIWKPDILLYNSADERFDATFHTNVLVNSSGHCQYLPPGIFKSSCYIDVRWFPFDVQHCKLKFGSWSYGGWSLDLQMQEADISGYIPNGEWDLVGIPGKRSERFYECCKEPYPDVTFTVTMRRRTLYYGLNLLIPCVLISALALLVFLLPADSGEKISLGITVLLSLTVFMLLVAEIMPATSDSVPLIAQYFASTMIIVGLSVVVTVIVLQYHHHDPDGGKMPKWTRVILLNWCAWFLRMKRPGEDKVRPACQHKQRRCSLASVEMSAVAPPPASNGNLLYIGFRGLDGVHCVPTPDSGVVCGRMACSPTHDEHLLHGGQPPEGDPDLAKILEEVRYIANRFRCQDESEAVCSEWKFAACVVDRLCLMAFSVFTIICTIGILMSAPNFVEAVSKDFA

Molecular target: PSAM^4-GlyR (Homo sapiens, UniProt P23415+P36544, L131G/Q139L/Y217F)
Design: expressed in transfected cells; method as in PMID 30872534, PMID 24556591, PMID 36279419
Settings: read-out: PSAM^4-GlyR (Ki); in vitro binding assay, literature; cited from earlier work

In the case of `O=S1(=O)c2cc(N3CCN4CCC3CC4)ccc2-c2cccc(F)c21` [ASEM], the Ki is given as 260 pM.
